Assay results: patent US20250297233A1, “GENETICALLY ENCODED SYSTEMS FOR GENERATING OXYGEN IN LIVING EUKARYOTIC CELLS” (The General Hospital Corporation, priority 2022, published 2025)

Experiments:
HeLa cells [1] = settings: 3 days
HeLa cells [2] = system: HeLa cells

sodium chlorite
three-day toxicity with NdCld co-expression (HeLa cells [1]; HeLa cells expressing NdCld+NIS, FIG. 3D): could be attenuated
three-day toxicity in cells expressing NdCld (HeLa cells [1]; HeLa cells expressing NdCld, FIG. 3B): toxicity was alleviated
change in three-day toxicity on expression of human NIS (HeLa cells [1]; HeLa cells expressing human NIS, FIG. 3C): five-fold increase
viability four hours after exposure (HeLa cells [2]; 30 minute exposure to high dose chlorite, FIG. 7): no dimunition in viability
viability during Seahorse experiments (HeLa cells [2]; one hour after addition of the highest doses of chlorite, FIG. 6C): remained viable
